Reference: patent publication US20210322417A1, “GASTRIC CANCER TREATMENTS” (The Jackson Laboratory, priority 2018, published 2021)

Legend:
[1] = test system: CSK null OE19 cells; test: CellTiter-Glo cell viability assay, CSK null OE19; type: cell-based, human; details: indicated doses of the agent in combination with 0.05 μM Lapatinib, 6 days
Source text: (§1) Viral particles were generated as described above.

[2] = test system: PTEN null OE19 cells; test: CellTiter-Glo cell viability assay, PTEN null OE19; type: cell-based, human; details: indicated doses of the agent in combination with 0.05 μM Lapatinib, 6 days
Source text: as §1

[3] = test system: HER2-amplified GC; details: HER2-amplified GC clinical trial data; cited from earlier work

Trastuzumab
effect on cell growth/viability [1]: some inhibitory effect | effect on cell growth/viability [2]: some inhibitory effect | improvement of overall survival [3]: 2.7 months
